In patent US20230044248A1, “COMBINED INHIBITION OF PD-1, TGFBeta AND ATM TOGETHER WITH RADIOTHERAPY FOR THE TREATMENT OF CANCER” (ARES TRADING S.A., priority 2019, published 2023):

Assays:
4T1 cells [1] = assay: Example 2: dosing schedule of Compound A in the triple combination, 4T1 mammary tumor model; conditions: p<0.0001, day 14; bintrafusp alfa 492 μg i.v. day 0, 2, 4; RT 8 Gy day 0-3
4T1 cells [2] = assay: Example 1: bintrafusp alfa, RT and Compound A in the 4T1 mammary tumor model; format: in vivo, BALB/c mice; conditions: p<0.0001, day 13; bintrafusp alfa 492 μg i.v. day 0, 2, 4; RT 8 Gy day 0-3
MC38 cells = assay: Example 5: triple combination versus dual and monotherapy controls, intramuscular MC38 murine colon carcinoma model; conditions: day 65; bintrafusp alfa 164 μg i.v. Day 0; RT 1.8Gy QDx4; Compound A 100 mg/kg p.o. QDx4 where given
4T1 cells [3] = assay: Example 3: triple combination versus dual and monotherapy controls, 4T1 mammary tumor model; conditions: p<0.0001, day 14; bintrafusp alfa 492 μg i.v. day 0, 2, 4; Compound A 100 mg/kg p.o. days 0-4

bintrafusp alfa and RT: dual combination therapy of bintrafusp alfa with radiotherapy (RT)
tumor growth relative to isotype control (4T1 cells [1]): significantly inhibited tumor growth | tumor growth relative to isotype control (4T1 cells [2]): significantly inhibited tumor growth | mice showing tumor free survival (MC38 cells): 6 of 10

COc1cc2ncc3c(c2cc1-c1cn(C)nc1C)n(-c1c(F)cncc1OC)c(=O)n3C [Compound A, 8-(1,3-Dimethyl-1H-pyrazol-4-yl)-1-(3-fluoro-5-methoxy-pyridin-4-yl)-7-methoxy-3-methyl-1,3-dihydro-imidazo[4,5-c]quinolin-2-one]
tumor growth relative to isotype control (monotherapies) (4T1 cells [3]): significantly inhibited

bintrafusp alfa: anti-PD-L1/TGFβ Trap fusion protein; light chain SEQ ID NO: 7, heavy chain fused to TGFβRII extracellular domain SEQ ID NO: 8
tumor growth relative to isotype control (monotherapies) (4T1 cells [3]): significantly inhibited
